Measured values reported in patent publication US20260382581A1, “COMPOSITIONS COMPRISING CYTISINE IN THE TREATMENT AND/OR PREVENTION OF ADDICTION IN SUBJECTS IN NEED THEREOF” (published 2026).

How the values were obtained:
[1] = ORCA-3: psychiatric reported adverse events
From the text: Safety will be assessed by consideration of all adverse events reported by or elicited from the subject and abnormalities detected on hematology and serum chemistry tests. Worsening of other pre-existing medical conditions and any changes to concomitant medications/treatments will also be taken into account in this evaluation.
Adverse events (AEs) will be coded using the MedDRA dictionary. Coding will include system organ class (SOC) and preferred term (PT). All verbatim descriptions and coded terms will be listed for all AEs.

[2] = system: adult smokers; assay: ORCA-2: cigarette craving, Brief Questionnaire of Smoking Urges (QSU-brief); details: 6 or 12 weeks, compared to placebo
From the text: The study had two primary endpoints. They assessed whether cytisinicline produced greater biochemically-confirmed continuous smoking abstinence when compared to placebo during the last 4 weeks of the 6-week treatment (weeks 3 to 6 for Arms B vs. A) and the 12-week treatment (weeks 9 to 12 for Arms C vs. A). Study success was defined as either primary endpoint meeting statistical criterion. The secondary outcome measures were verified continuous cigarette abstinence to week 24 (weeks 3 to 24 for Arms B vs. A; weeks 9 to 24 for Arms C vs. A). A third secondary outcome measure compared the risk of relapse to smoking between weeks 6 and 24 among participants assigned to cytisinicline who achieved abstinence by week 6; these individuals were either switched to placebo at week 6 (Arm B) or continued cytisinicline to week 12 (Arm C). […]
The mean total cigarette craving score, using the QSU-brief, declined more rapidly between baseline and week 6 among participants who received cytisinicline for 6 or 12 weeks, compared to placebo (FIG. 38). During the first 6 weeks of treatment, mean cigarette craving score, as measured by the Brief Questionnaire of Smoking Urges (QSU-brief), declined more among patients randomized to cytisinicline for 6 weeks and 12 weeks than among those randomized to placebo. […]

SMILES: O=c1cccc2n1C[C@@H]1CNC[C@H]2C1
- Abnormal dreams, % [1]: 7.5%
- Acute stress disorder, % [1]: 0.1%
- Adjustment disorder with depressed mood, % [1]: 0.1%
- Affect lability, % [1]: 0.1%
- Anhedonia, % [1]: 0.5%
- Anxiety, % [1]: 2.5%
- Bipolar disorder, % [1]: 0.1%
- Bruxism, % [1]: 0.1%
- Depressed mood, % [1]: 0.5%
- Depression, % [1]: 2.0%
- Initial insomnia, % [1]: 0.3%
- Insomnia, % [1]: 10.2%
- Irritability, % [1]: 1.7%
- Major depression, % [1]: 0.1%
- Mood swings, % [1]: 0.1%
- Nightmare, % [1]: 1.1%
- Panic attack, % [1]: 0.3%
- Paranoia, % [1]: 0.1%
- Post-traumatic stress disorder, % [1]: 0.1%
- Psychiatric disorders, % [1]: 22.9%
- Restlessness, % [1]: 0.3%
- Sleep disorder, % [1]: 0.5%
- Somnambulism, % [1]: 0.1%
- Stress, % [1]: 0.1%
- Suicidal ideation, % [1]: 0.1%
- Suicide attempt, % [1]: 0.3%
- mean total cigarette craving score, baseline to week 6 [2]: declined more rapidly between baseline and week 6
